One assay addresses human μ opiate receptor (Homo sapiens, UniProt P35372). Kind of assay: μ opiate receptor binding assay with [3H]-naloxone (WGA-SPA beads). Particulars: for Ki: read-out: Ki (μ) mean [μm], mean; for % inhibition (μ) [1 μM]: test concentration 1 μM.
Assay [1] has as its system rats. As to the kind of experiment: Analgesia in the tail flick (focal ray) test in rats, intravenous administration.
For a further assay, the target named is ORL1 receptor (Homo sapiens, UniProt P41146). Kind of assay: ORL1 receptor binding assay with 3H-nociceptin/orphanin FQ (WGA-SPA beads). To be noted: for Ki: read-out: Ki (ORL1) mean, mean; for % inhibition (ORL1) [1 μM]: test concentration 1 μM.
Assay [2] relates to rats. Kind of assay: Chung model: mononeuropathy pain following spinal nerve ligation (mechanical allodynia, von Frey).

The chains behind the UniProt entries cited, without tags or fusion partners.
UniProt P35372, whole entry: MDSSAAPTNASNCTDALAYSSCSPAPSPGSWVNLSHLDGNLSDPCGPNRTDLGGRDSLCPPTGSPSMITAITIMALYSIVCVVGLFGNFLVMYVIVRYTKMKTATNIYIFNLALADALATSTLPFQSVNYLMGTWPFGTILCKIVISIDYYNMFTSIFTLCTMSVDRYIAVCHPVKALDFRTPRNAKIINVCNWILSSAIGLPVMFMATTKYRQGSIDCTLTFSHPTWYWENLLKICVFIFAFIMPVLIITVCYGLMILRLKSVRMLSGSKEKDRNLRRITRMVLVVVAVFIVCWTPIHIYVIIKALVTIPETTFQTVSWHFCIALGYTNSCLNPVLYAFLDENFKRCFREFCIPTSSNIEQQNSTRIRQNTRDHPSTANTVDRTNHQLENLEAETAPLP
UniProt P41146, whole entry: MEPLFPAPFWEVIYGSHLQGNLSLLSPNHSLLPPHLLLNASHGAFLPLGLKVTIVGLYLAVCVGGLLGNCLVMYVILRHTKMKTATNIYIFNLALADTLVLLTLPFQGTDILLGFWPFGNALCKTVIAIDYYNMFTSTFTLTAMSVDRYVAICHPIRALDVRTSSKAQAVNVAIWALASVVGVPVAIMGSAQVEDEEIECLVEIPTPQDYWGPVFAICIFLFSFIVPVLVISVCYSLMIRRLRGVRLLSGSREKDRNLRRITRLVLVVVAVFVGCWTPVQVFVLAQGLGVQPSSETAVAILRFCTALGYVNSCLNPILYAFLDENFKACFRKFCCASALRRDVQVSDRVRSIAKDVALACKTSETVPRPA

On to `CN(C)C1(c2cccs2)CCC2(CC1)CC(=O)N(CC1(O)CCC1)C2` (single isomer, unassigned), for which, at human μ opiate receptor, the Ki was 6.15 nM and the “% inhibition (μ) [1 μM]” value stood at 98.5%. In addition, in the assay with rats [1] (@100 μg/kg), the “Tail flick rat, i.v. % MPE (@μg/kg)” value is 52%@100. Further, at ORL1 receptor, the Ki was 9.55 nM and the “% inhibition (ORL1) [1 μM]” value is 85%.
Consider `CN(C)C1(c2cccs2)CCC2(CC1)CC(=O)N(CCC1CCCO1)C2` (single isomer, unassigned) [137], for which the results for the Ki at human μ opiate receptor and at ORL1 receptor were 595 nM and 475 nM, respectively. In addition, at human μ opiate receptor (1 µM), the “% inhibition (μ) [1 μM]” value amounted to 44%. Further, in the assay on rats [1] (@100 μg/kg), the “Tail flick rat, i.v. % MPE (@μg/kg)” value was determined as 100%@100. On ORL1 receptor (1 µM), the “% inhibition (ORL1) [1 μM]” value came out at 43%.
On to `CN(C)C1(c2cccs2)CCC2(CC1)CC(=O)N(CC1CCOCC1)C2` (single isomer, unassigned) [138], for which the Ki amounted to 7.05 nM at human μ opiate receptor and 21.5 nM on ORL1 receptor. Moreover, on human μ opiate receptor (1 µM), the “% inhibition (μ) [1 μM]” value is reported as 97%. The “Tail flick rat, i.v. ED50 rat [μg/kg]” value in the assay with rats [1] worked out at 30.1 µg/kg. Moreover, at ORL1 receptor (1 µM), the “% inhibition (ORL1) [1 μM]” value came to 74%.
The matching figures for `CN(C)C1(c2cccs2)CCC2(CC1)CC(=O)N(CCC1CCOC1)C2` (single isomer, unassigned) [141]: 1.9 nM, 2.7 nM, 97.5%, 4.84 µg/kg and 90.5%.
For the molecule `CN(C)C1(c2cccs2)CCC2(CC1)CC(=O)N(CCC1COC1)C2` (single isomer, unassigned) [142], the Ki on human μ opiate receptor came to 7.4 nM; on ORL1 receptor, 5.75 nM. Besides, the “% inhibition (μ) [1 μM]” value on human μ opiate receptor (1 µM) turned out to be 94%. In the assay with rats [2], the “SNL rat, i.v. ED50 rat [μg/kg]” value turned out to be 96 µg/kg. Moreover, the “Tail flick rat, i.v. ED50 rat [μg/kg]” value in the assay with rats [1] amounted to 126 µg/kg. In addition, the “% inhibition (ORL1) [1 μM]” value on ORL1 receptor (1 µM) stood at 85%.
As for `CN(C)C1(c2cccs2)CCC2(CC1)CC(=O)N(CCC1(C#N)CC1)C2` (single isomer, unassigned) [144], the Ki at human μ opiate receptor stood at 2.05 nM; at ORL1 receptor, 4.1 nM. Besides, at human μ opiate receptor (1 µM), the “% inhibition (μ) [1 μM]” value came to 99.5%. Besides, the “SNL rat, i.v. % MPE (@μg/kg)” value with rats [2] (@21.5 μg/kg) was determined as 64%@21.5. Further, the “Tail flick rat, i.v. ED50 rat [μg/kg]” value in the assay on rats [1] amounted to 11.5 µg/kg. At ORL1 receptor (1 µM), the “% inhibition (ORL1) [1 μM]” value was found to be 91%.
Consider `CN(C)C1(c2cccs2)CCC2(CC1)CC(=O)N(CC1COC1)C2` (single isomer, unassigned) [148], for which the Ki at human μ opiate receptor worked out at 42.5 nM; at ORL1 receptor, 32 nM. At human μ opiate receptor (1 µM), the “% inhibition (μ) [1 μM]” value came to 91%. In addition, the “Tail flick rat, i.v. % MPE (@μg/kg)” value in the assay with rats [1] (@1000 μg/kg) amounted to 70%@1000. Besides, the “% inhibition (ORL1) [1 μM]” value at ORL1 receptor (1 µM) is listed as 78%.
Turning to `CN(C)C1(c2cccs2)CCC2(CC1)CC(=O)N(CCC1(C#N)CCC1)C2` (single isomer, unassigned) [150], the Ki amounted to 0.4 nM at human μ opiate receptor and 2.05 nM on ORL1 receptor. The “% inhibition (μ) [1 μM]” value at human μ opiate receptor (1 µM) is 99%. Moreover, the “Tail flick rat, i.v. % MPE (@μg/kg)” value with rats [1] (@10 μg/kg) amounted to 90%@10. The “% inhibition (ORL1) [1 μM]” value on ORL1 receptor (1 µM) worked out at 95%.
`CN(C)C1(c2ccccc2)CCC2(CC1)CC(=O)N(CCC1(C#N)CC1)C2` (single isomer, unassigned) [175]: the figures for the Ki at human μ opiate receptor and at ORL1 receptor were 2.4 nM and 3.95 nM, respectively. For the same molecule, the “% inhibition (μ) [1 μM]” value at human μ opiate receptor (1 µM) was found to be 99.5%. The “SNL rat, i.v. % MPE (@μg/kg)” value in the assay on rats [2] (@46.4 μg/kg) amounted to 72%@46.4. For the same molecule, in the assay with rats [1], the “Tail flick rat, i.v. ED50 rat [μg/kg]” value amounted to 55 µg/kg. In addition, the “% inhibition (ORL1) [1 μM]” value on ORL1 receptor (1 µM) came out at 96%.
For `CN(C)C1(c2ccccc2)CCC2(CC1)CC(=O)N(CCC1(C#N)CCC1)C2` (single isomer, unassigned) [177], the “% inhibition (μ) [1 μM]” value on human μ opiate receptor (1 µM) is given as 99.5%. For the same molecule, the “Tail flick rat, i.v. % MPE (@μg/kg)” value with rats [1] (@100 μg/kg) was found to be 100%@100. Besides, the Ki at ORL1 receptor was found to be 1.65 nM. Also, the “% inhibition (ORL1) [1 μM]” value on ORL1 receptor (1 µM) is recorded as 97.33%.
Consider `COC(C)(C)CCN1CC2(CCC(c3ccccc3)(N(C)C)CC2)CC1=O` (single isomer, unassigned) [182], for which the Ki on human μ opiate receptor was determined as 0.75 nM; at ORL1 receptor it was 1.3 nM. For the same molecule, the “% inhibition (μ) [1 μM]” value on human μ opiate receptor (1 µM) amounted to 97%. Besides, in the assay with rats [1], the “Tail flick rat, i.v. ED50 rat [μg/kg]” value is 6.92 µg/kg. Also, the “% inhibition (ORL1) [1 μM]” value on ORL1 receptor (1 µM) is on record as 96.5%.
On to `CN(C)C1(c2ccccc2)CCC2(CC1)CC(=O)N(CC1CCC1)C2` (stereo not shown) [169], for which the Ki on human μ opiate receptor stood at 1.2 nM; on ORL1 receptor it was 1.03 nM. Further, the “% inhibition (μ) [1 μM]” value at human μ opiate receptor (1 µM) was 102%. Moreover, the “% inhibition (ORL1) [1 μM]” value at ORL1 receptor (1 µM) is recorded as 95.5%.
The matching figures for `CN(C)C1(c2ccccc2)CCC2(CC1)CC(=O)N(CC1CC1)C2` (stereo not shown) [172]: 630 nM, 83 nM, 35.5% and 39.5%.
The like results for `CN(C)C1(c2ccccc2)CCC2(CC1)CC(=O)N(CCC1COC1)C2` (stereo not shown) [254] were, in that order, 18.5 nM, 8.75 nM, 94% and 94.5%.
The matching figures for `CN(C)C1(c2ccccc2)CCC2(CC1)CC(=O)N(CC(C)(C)C#N)C2` (stereo not shown) [310]: 1030 nM, 195 nM, 29.5% and 52%.
